Yeast mating assay 2: variants of the scFv Ab-91

Values reported by Engelhart et al. 2022, doi:10.1038/s41597-022-01779-4 (FLAb copy).

Antigen: PDVDLGDISGINAS, a 14-residue peptide of the SARS-CoV-2 spike HR2 region.

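The starting antibody came from a phage panning campaign against this peptide. In library AAYL51, one, two or three CDR residues were substituted; doubles and triples were drawn at random. Affinity was read by AlphaSeq, a pooled yeast mating assay with surface-displayed partners. Pairs that bind mate more often; barcode pairs of the diploids are counted by sequencing. The ratio of observed to expected reads was calibrated, replicate by replicate, on BCL2-family standards whose Kd was known from biolayer interferometry. Each pool was mated in three replicate cultures.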

Parent: Ab-91, a human scFv built as VL, a (GGGGS)3 linker, VH. Only the CDRs of the heavy chain vary.
VL: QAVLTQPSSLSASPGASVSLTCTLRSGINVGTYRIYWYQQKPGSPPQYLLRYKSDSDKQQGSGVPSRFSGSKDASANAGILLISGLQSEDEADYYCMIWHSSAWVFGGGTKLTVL
VH: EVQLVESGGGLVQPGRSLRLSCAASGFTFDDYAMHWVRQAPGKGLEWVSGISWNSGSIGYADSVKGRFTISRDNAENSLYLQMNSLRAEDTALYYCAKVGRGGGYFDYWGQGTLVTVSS

Variants are written as CDR1, CDR2 and CDR3 of the heavy chain (limits as in the source). Parent: GFTFDDYAMH, GISWNSGSIGYADSVK, VGRGGGYFDY.
The read-out is the apparent dissociation constant on a log10 scale (nM): the lower, the stronger.
"ND" means that the variant was in the library but no mating with the target was seen in that replicate; the authors take this as a sign of poor binding, and no number exists.
Nonspecific signal, from three strains lacking the peptide, appeared in 21% of pairings of library AAYL51, centred on 4.54 (5% of these signals below 3.26); values are not corrected for it.
For reference, the parent read 1.86 as the reference entry and 0.88 as a member of this library.

With GFCFDDYAMH | GISWNSGSIGYADSVK | VSRHGGYFDY the result was 2.81, 3.17, 3.16.
With GFTFDDYAMH | CHSWNSGSIGYADSVK | VGRGGGYFAY the result was ND, ND, ND.
With GFDFDDYNMH | GISWNSGSIGYADSVK | VGRGGGYFDW the result was ND, ND, 4.25.
With GFTFDDYEMH | GISWNSGSIGYADSVG | VGRGGGYFDY the result was 3.61, ND, ND.
With GFTFDDIAMH | GIAWNSGSIGYADSVK | VGRGGGYFDY the result was ND, ND, ND.
With RFTFDDYAMH | GIFWNSGSIGGADSVK | VGRGGGYFDY the result was 3.68, 4.68, 4.42.
With GCTFDDYAMH | GISWSSGKIGYADSVK | VGRGGGYFDY the result was ND, ND, 5.06.
With GFTFDDYAMH | GISWNSGSIGFADSVK | VGRGGGYTDY the result was ND, ND, ND.
With GFTFDDYAMH | GILWPSGSIGYADSGK | VGRGGGYFDY the result was ND, ND, ND.
With GVTFDDYAMH | GISFNSGSIGYADSVK | VGRGGGYQDY the result was ND, ND, ND.
With GFTFDDYAMH | GISWNSGSIGYADGVK | VQRGGGYFDY the result was 4.84, ND, ND.
With GFTFDDYAMH | KISWNSGSIGYADSEK | VGRVGGYFDY the result was ND, ND, ND.
With GFTFDDYAMH | GISWNSGSIGYACSVK | VGRGGGYRDD the result was 5.41, ND, ND.
With GFRMDDYAMH | GISWNSGKIGYADSVK | VGRGGGYFDY the result was 5.00, 4.91, 5.03.
With GFKFDDYAMH | GISWNSGSIGYADSVH | VGRGGGFFDY the result was 0.81, 0.82, 0.26.
With GFTFDDYALH | GISWNSGKIGYADSVK | VGRGGGYFWY the result was 4.71, 4.46, 5.09.
With GFTFDDYYMH | GISWNSGSIGYADSVK | VGRGGGYFVY the result was ND, ND, ND.
With GYTFDDYAMI | GISWNSGSIGYADSVK | VGRSGGYFDY the result was ND, ND, ND.
With GFTFDEYAMH | GISWNSGSIGYADQVK | VGRGGGYFDC the result was 0.84, 0.84, 0.15.
With GFTFEDYAMH | GISHNSGSIGYADSVK | VQRGGGYFDY the result was ND, ND, ND.
With GFTFDDYAMH | GISWNSGMIGEADSVK | VGMGGGYFDY the result was ND, ND, ND.
With PFTFDDYAMH | FISWNSGSIGYADSVK | VGRGGGYFDY the result was ND, ND, ND.
With GFTFDDYAMN | GISWNSGSILYADSVK | VGRGGGYFDH the result was 4.93, 5.25, ND.
With GFTFDNYANH | GISWNSGSIGYADSVG | VGRGGGYFDY the result was ND, ND, ND.
With GFTMDYYAMH | GISWNSGSIGYADSVK | VGRVGGYFDY the result was ND, ND, ND.
With TFTFDDYAMS | GISWNSGSIGYADSVK | VHRGGGYFDY the result was 4.41, ND, ND.
With GFTTDDYAMH | GISWNEGSIGYADSVK | VGRGGYYFDY the result was ND, ND, ND.
With AFTFDDYAMH | GIPGNSGSIGYADSVK | VGRGGGYFDY the result was 3.70, ND, ND.
With GFTFDDYAMH | GISWNDYSIGYADSVK | FGRGGGYFDY the result was ND, ND, ND.
With GFTFYDYAMH | GISMNSGSIGYAFSVK | VGRGGGYFDY the result was 2.20, 3.01, 2.32.
With GFTFDDYEMH | GISPNSGSIGYADSVK | VGRGGGYPDY the result was 2.84, ND, ND.
With GFTSDDNAMH | GISWNSGSIGYADSVK | GGRGGGYFDY the result was ND, ND, ND.
With GFYFDDYAMH | GISWYSGSIGYADSVK | VGRGGGYFDY the result was 4.87, 5.64, ND.
With GFTFDDYAMH | GISHNSGQHGYADSVK | VGRGGGYFDY the result was 0.56, 0.52, -0.12.
With GFTFDDYAMH | GIGWNSGSIGYAKSVK | VGRGGGYQDY the result was 4.56, ND, ND.